Measurements taken from US20260284049A1 (BRISTOL-MYERS SQUIBB COMPANY, priority 2023, published 2026).
“And” between values parts separate entries of the source, which are not always exact repeats. Equal entries are not always repeated.

Columns and labels:
thrombin generation = assay: AXIOMATIC-TKR: Thrombin Generation Assay (TGA): peak height, ETP, lag time; assay type: in vivo, human; settings: 25 mg QD to 200 mg BID
[1] = test system: participants undergoing primary unilateral elective TKR surgery; settings: in vivo
[2] = test system: participants with ischemic stroke or TIA

Structure (SMILES): C[C@@H]1CCC[C@H](n2cnc(-c3cc(Cl)ccc3-n3cc(Cl)nn3)cc2=O)c2cc(ccn2)-c2c(cnn2C(F)F)NC1=O [milvexian, (5R,9S)-9-(4-(5-chloro-2-(4-chloro-1H-1,2,3-triazol-1-yl)phenyl)-6-oxopyrimidin-1(6H)-yl)-2^1-(difluoromethyl)-5-methyl-2^1H-3-aza-1(4,2)-pyridina-2(5,4)-pyrazolacyclonaphan-4-one]
- TGA lag time (thrombin generation): dose related prolongation
- Total VTE, % [1]: 13.6% and 12.2%
- Total VTE, participants n [1]: 108
- VTE reduction compared with enoxaparin [1]: superior to enoxaparin
- efficacy compared with enoxaparin [1]: comparable efficacy to enoxaparin
- total VTE compared to enoxaparin [1]: statistically significant reductions
- Ischemic Stroke Incidence Rate (n/N %) ([2]; 25 mg QD, up to Day 21): 4.6%
- Subjects With Ischemic Stroke n ([2]; 25 mg QD, up to Day 21): 15
- Symptomatic Stroke Events: Incidence Rate (n/N %) ([2]; 25 mg QD, up to Day 21): 4.6%
- Symptomatic Stroke Events: Subjects With Event n ([2]; 25 mg QD, up to Day 21): 15
- Ischemic Stroke n ([2]; 25 mg QD, up to Day 90): 15
- primary endpoint (new ischemic stroke and new covert brain infarction on MRI at Day 90) ([2]; human, in vivo): numerically lower
